According to EP1674580A1, “Method for identifying activators and/or inhibitors of enzyme activity” (F. HOFFMANN-LA ROCHE AG, priority 2004, dated 2006):

Target: T1, recombinant rat insulin degrading enzyme (Rattus norvegicus, UniProt P35559)
T1 sequence (P35559 1-1019): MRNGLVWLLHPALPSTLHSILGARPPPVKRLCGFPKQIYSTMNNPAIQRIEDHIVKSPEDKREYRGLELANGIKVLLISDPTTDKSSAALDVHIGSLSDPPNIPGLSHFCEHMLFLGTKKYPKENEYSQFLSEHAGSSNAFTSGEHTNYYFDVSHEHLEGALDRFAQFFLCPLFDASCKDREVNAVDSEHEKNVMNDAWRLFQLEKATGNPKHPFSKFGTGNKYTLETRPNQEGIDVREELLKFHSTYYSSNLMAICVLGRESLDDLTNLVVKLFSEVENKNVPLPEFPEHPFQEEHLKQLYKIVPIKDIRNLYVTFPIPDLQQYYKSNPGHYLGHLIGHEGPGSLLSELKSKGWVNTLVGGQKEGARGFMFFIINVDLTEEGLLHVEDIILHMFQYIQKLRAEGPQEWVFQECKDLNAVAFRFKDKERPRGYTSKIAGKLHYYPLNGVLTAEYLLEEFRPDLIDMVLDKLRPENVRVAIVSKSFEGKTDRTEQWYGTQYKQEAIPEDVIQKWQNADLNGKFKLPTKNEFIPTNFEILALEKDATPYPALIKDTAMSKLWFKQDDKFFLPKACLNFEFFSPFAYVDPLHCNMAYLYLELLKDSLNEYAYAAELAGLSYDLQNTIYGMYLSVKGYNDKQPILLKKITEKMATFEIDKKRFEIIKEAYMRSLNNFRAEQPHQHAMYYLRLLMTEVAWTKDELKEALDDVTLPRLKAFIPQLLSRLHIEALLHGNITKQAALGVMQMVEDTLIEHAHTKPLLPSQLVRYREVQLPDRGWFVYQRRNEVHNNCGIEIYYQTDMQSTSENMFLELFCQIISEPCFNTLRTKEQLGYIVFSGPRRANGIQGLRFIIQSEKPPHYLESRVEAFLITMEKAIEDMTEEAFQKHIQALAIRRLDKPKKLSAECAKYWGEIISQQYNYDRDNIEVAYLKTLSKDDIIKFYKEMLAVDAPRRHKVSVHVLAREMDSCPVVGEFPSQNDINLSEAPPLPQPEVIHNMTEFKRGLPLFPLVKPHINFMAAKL
Test: MR121/tryptophan static quenching protease assay with IDE
Conditions: screen at 20 µM candidate compound, 10 nM IDE, 100 nM substrate; 100% is the enzyme activity without compound

## Cc1ccc(C(=O)Nc2ccc(S(=O)(=O)O)c3cc(S(=O)(=O)O)cc(S(=O)(=O)O)c23)cc1NC(=O)c1cccc(NC(=O)Nc2cccc(C(=O)Nc3cc(C(=O)Nc4ccc(S(=O)(=O)O)c5cc(S(=O)(=O)O)cc(S(=O)(=O)O)c45)ccc3C)c2)c1 [Suramin]
  activation of IDE: positive
